pEC50, pKi: −log10 of the molar value.
Experiments:
[1] = target: T1, Kappa-type opioid receptor (Homo sapiens, UniProt P41145); test: Activation of human Opioid receptor kappa 1 expressed in chinese hamster ovary cells to enhance [35S]GTP-gamma-S, binding compared to U50,488H; format: functional, cell-based
In short: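 Agonist efficacy at human κ-opioid receptor, read as enhancement of [35S]GTPγS binding and expressed as % of the maximal response to U50,488H. Mean of at least three independent experiments, each run in duplicate.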

Protein sequences, listed by entry. Tags and fused reporters are not part of them. Lines headed by an entry give the natural chain unless they say otherwise; changes in a name come on top.
UniProt P41145: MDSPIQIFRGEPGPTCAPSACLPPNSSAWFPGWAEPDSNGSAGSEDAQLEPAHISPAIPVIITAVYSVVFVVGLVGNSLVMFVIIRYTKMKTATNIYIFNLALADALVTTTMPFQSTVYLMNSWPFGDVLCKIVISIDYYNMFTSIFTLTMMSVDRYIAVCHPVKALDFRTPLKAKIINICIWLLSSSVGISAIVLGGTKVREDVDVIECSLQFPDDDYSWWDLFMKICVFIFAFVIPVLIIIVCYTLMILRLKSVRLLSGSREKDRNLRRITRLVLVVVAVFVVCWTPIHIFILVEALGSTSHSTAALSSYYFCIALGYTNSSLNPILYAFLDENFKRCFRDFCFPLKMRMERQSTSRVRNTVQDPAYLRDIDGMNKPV

[2] = target: T1, Kappa-type opioid receptor; test: Effective concentration for activation of human Opioid receptor kappa 1 expressed in chinese hamster ovary cells to enhance [35S]GTP-gamma-S, binding; format: functional, cell-based
In short: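 EC50 for human κ-opioid receptor activation, read as enhancement of [35S]GTPγS binding. Mean of at least three independent experiments, each run in duplicate.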

[3] = target: T1, Kappa-type opioid receptor; test: Inhibition of [3H]diprenorphine binding to human Opioid receptor kappa 1 expressed in chinese hamster ovary cells; format: cell-based, CHO
In short: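 Ki from inhibition of [3H]diprenorphine binding to human κ-opioid receptor. Mean of at least three independent experiments, each run in duplicate.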

SMILES | Efficacy [1] | pEC50 [2] | pKi [3]
CCCCO[C@H]1C[C@@H](C(=O)OC)[C@]2(C)CCC3C(=O)O[C@H](c4ccoc4)C[C@]3(C)[C@H]2C1=O (some centres not stated) | 105% |  | 
COC(=O)[C@@H]1C[C@H](OCc2ccccc2)C(=O)[C@H]2[C@@]1(C)CCC1C(=O)O[C@H](c3ccoc3)C[C@@]12C (some centres not stated) | 102% |  | 
CCN[C@@H]1C[C@@H](C(=O)OC)[C@]2(C)CC[C@H]3C(=O)O[C@H](c4ccoc4)C[C@]3(C)[C@H]2C1=O | 111% |  | 
CCO[C@H]1C[C@@H](C(=O)OC)[C@]2(C)CC[C@H]3C(=O)O[C@H](c4ccoc4)C[C@]3(C)[C@H]2C1=O [DEOXY SALVINORIN A] |  | 7.73 | 8.10
COC(=O)[C@@H]1C[C@H](O)C(=O)[C@H]2[C@@]1(C)CC[C@H]1C(=O)O[C@H](c3ccoc3)C[C@]21C [SALVINORIN B] |  | 6.43 | 6.81

— ChEMBL document CHEMBL1145271 (Bioorg Med Chem Lett, 2005)
